Reference: patent US20250074964A1 (Ambio, Inc., priority 2023, published 2025)

Key:
[1] = GLP-1 analog stability in formulation (PBS, HPLC); assay type: physicochemical; settings: for Concentration / HPLC Purity: Injection 1 and 2
[2] = GLP-1 analog adhesion to plastic (transfer between 5 polypropylene tubes, HPLC); assay type: physicochemical; settings: 1.6 μg/mL in PBS

## semaglutide
[1]; A: −80° C., 7 d
  Concentration: 1000 µg/mL
  HPLC Purity: 98.22% and 98.17%
[1]; B: 4° C., 1 d
  Concentration: 1000 µg/mL
  HPLC Purity: 98.17%
[1]; C: 4° C., 3 d
  Concentration: 1050 µg/mL
  HPLC Purity: 98.19% and 98.18%
[1]; D: 4° C., 7 d
  Concentration: 1000 µg/mL
  HPLC Purity: 98.17% and 98.19%
[1]; Fresh
  Concentration: 1000 µg/mL
  HPLC Purity: 98.18% and 98.17%
[1]; remained consistent over storage
  concentration of the formulation after storage: 1000 µg/mL
[1]; storage at 4° C. or −80° C. for 7 days (semaglutide: 4° C. for 7 days), in words
  change of purity after storage: No significant change of purity
[2]
  Area (Mean), Initial Tube: 19.4
  Area Ratio (Initial/Final Tube, %): 80%
[2]; after transfer
  Area (Mean), Final Tube: 15.6
[2]; after transfer between 5 polypropylene tubes, Injection 1 and 2
  HPLC Peak Areas, Final Tube: 16.8 and 14.3
[2]; Injection 1 and 2
  HPLC Peak Areas, Initial Tube: 18.8 and 20.0

Values joined by “and” are separate entries in the source; they are usually repeats but may differ in a detail not shown here. Equal values may be shown once.
